Measurements published in PubChem BioAssay AID504894 (National Center for Advancing Translational Sciences (NCATS), 2011).
The list shows a part of the results, in another mix than the full data. The source made the active and inactive calls. The call rests on the fitted dose curve; in most records, active means well fitted activation curve with a large enough effect; inconclusive means small, poorly fitted or top-dose-only effect, or another doubt; inactive means no such curve, though single readings can be large or run the other way.

Test: Activators of T cell receptors: qHTS campaign; further: % of control where 0% means no effect
Details: primary human leukocytes, anti-CD3, IL-2 HTRF, 48 h; at 9.22 µM (top of the series) unless noted
Text: Normally activation of naive T cells requires two signals. 1. A signal through the T cell receptor (TCR) which provides antigen specificity to the response. 2. Signals through co-stimulatory molecules, which are necessary for proliferation, survival and cytokine production. In the absence of co-stimulatory signals T cells are not effectively activated, and may even be rendered anergic or unresponsive to subsequent signaling. This lack of costimulation has been shown in multiple model systems to be a major factor in the limited strength and effectiveness of anti-tumor T cell responses. The goal of this project is to identify small molecule compounds that will stimulate T cell activation in the presence of TCR signaling but in the absence of co-stimulatory signals, thereby allowing activation of naive T cells in the absence of co-stimulation. Identification of such compounds would have clear experimental and clinical applications in instances where desirable antigen-specific immune responses are not generated due to a lack of co-stimulation, for example in the generation of anti-tumor responses. In collaboration between the National Cancer Institute and NIH Chemical Genomics Center, a high-throughput amenable screen was developed to discover small molecules that co-stimulate and activate human T cell receptors. The screen will be carried out using a novel homogeneous time resolved fluorescence energy transfer (HTRF) assay to measure production of the cytokine IL-2 by activated T cells and will be tested against the NIH Molecular Libraries Small Molecule Repository (MLSMR). NIH Chemical Genomics Center [NCGC] NIH Molecular Libraries Probe Centers Network [MLPCN] MLPCN Grant: MH090820-01 Assay Submitter (PI): Richard Hodes, National Cancer Institute, NIH
Primary human leukocytes are incubated with a-CD3 beads and compounds for 48 hr. The amount of secreted IL-2 is then assayed with a HTRF IL-2 kit. The presence of IL-2 cytokine captures the detection reagents and brings the a-IL-2-K and a-IL-2-d2 into close proximity. Upon excitation with 320nm light, the europium cryptate is capable of transferring energy to acceptor molecules within close proximity, resulting in acceptor molecule emission at 665nm.

SMILES	activation of IL-2 secretion
C[C@H]1OP(=O)(Oc2ccccc2)[C@H](O)[C@H](O)[C@H]1N=[N+]=[N-] (stereo partly drawn)	inactive: -3.13%
COc1ccc(N)c([N+](=O)[O-])c1[N+](=O)[O-]	inactive: -2.22%
CN(C)C1(CNC(=O)c2ccc(Cl)c(S(N)(=O)=O)c2)CCCCC1	inactive: -2.15%
O=P(Nc1ccccn1)(c1ccc(Br)cc1)c1ccc(Br)cc1	inactive: 1.82%
Nc1ccc([As](=O)(O)c2ccc([N+](=O)[O-])cc2)cc1	inactive: -7.06%
C(Cc1nn[nH]n1)Cc1nn[nH]n1	inactive: -0.811% [at 46.1 µM]
O=C(OC1CN2CCC1CC2)c1cccc(Cl)c1 (stereo not drawn)	inactive: -5.24%
O=[N+]([O-])c1ncn(CCn2cnc([N+](=O)[O-])n2)n1	inactive: -9.6%
CC(=O)NC(SC(=S)N(C)C)C(Cl)(Cl)Cl (stereo not drawn)	inactive: 2.38% [at 46.1 µM]
O=[N+]([O-])c1ccc(O)c(/C=N/Nc2ccc([N+](=O)[O-])cc2[N+](=O)[O-])c1	inactive: -1.84%
O=[As](O)(c1ccccc1)c1ccc(O)cc1	inactive: -3.82%
c1nnnn1CCn1cnnn1	inactive: -6.69%
O=P(Nc1nccs1)(c1ccccc1)c1ccccc1	inactive: 1.01%
CC(C)C(=O)NC(Sc1ccccc1)C(Cl)(Cl)Cl (stereo not drawn)	inactive: -5.35% [at 46.1 µM]
CC(=O)N1C2C3N(C(C)=O)C1C1N(C(C)=O)C(C(N1C(C)=O)N3C(C)=O)N2C(C)=O	inactive: 0.577%
O=[N+]([O-])c1cccc2n[nH]nc12	inactive: -0.743%
Cc1ccc(NP(=O)(Oc2ccccc2)Oc2ccccc2)nc1	inactive: 1.37%
O=[N+]([O-])c1cc([N+](=O)[O-])c(CCNc2ccccc2)c([N+](=O)[O-])c1	inactive: -4.87%
CCc1nc2c(n1)c1c(non1O)c1c2no[n+]1[O-]	inactive: 1.52%
COc1ccc(C2=NCC(CBr)S2)cc1 (stereo not drawn)	inactive: 1.09%
CC(C)=N/N=C(\N)N[N+](=O)[O-]	inactive: -2.15%

SMILES	activation of IL-2 secretion
CN(C)C(=O)OCCc1n(C)cc[n+]1C	inactive: -4.94% [at 46.1 µM]
CC1CCN(C(=O)Oc2c(Cl)cc(Cl)c3cccnc23)CC1	inactive: -1.28%
Nc1ccc([As](=O)(O)c2ccc(N)cc2)cc1	inactive: -2.66%
C[N+]1=C2C=CC=CC=C2SC12C([N+](=O)[O-])=CC([N+](=O)[O-])=C[C-]2[N+](=O)[O-] (stereo not drawn)	inactive: 4.74%
CCN(/C(=N/P(=O)(N1CCOCC1)N1CCOCC1)N1CCOCC1)c1ccc(OC)cc1	inactive: 3.3%
O=C(Nc1cc([As](=O)(O)O)ccc1O)c1ccccc1	inactive: -2.69%
O=P1(N(CCCl)CCCl)OCCCS1 (stereo not drawn)	inactive: -3.05%
O=[N+]([O-])c1cccc(NC2=NCC(CBr)S2)c1 (stereo not drawn)	inactive: -5.23%
COC(=O)C1(C)COP(=O)(Nc2ccccc2)OC1 (stereo not drawn)	inactive: 2.91%
O=C(O)CNc1ccc([As](=O)(O)O)cc1	inactive: 2.48%
CC(C)(C)C(=O)NC(Sc1ccncn1)C(Cl)(Cl)Cl (stereo not drawn)	inactive: -16.1%
O=[N+]([O-])c1ncn(CCn2ncnc2[N+](=O)[O-])n1	inactive: -2.1%
CCOP(=O)(Nc1ccccc1)OCC	inactive: -0.25%
Cc1cc(SC(NC(=O)c2ccc(F)cc2)C(Cl)(Cl)Cl)ncn1 (stereo not drawn)	inactive: -2.56% [at 46.1 µM]
CN(C(=O)Cc1ccc(Cl)c(Cl)c1)[C@H]1CCCC[C@@H]1N1CCCC1	inactive: 4.32%
Cc1ccc(NP(=O)(Oc2ccccc2F)Oc2ccccc2F)nc1	inactive: -4.23%
O=C(O)c1ccccc1[As](=O)(O)O	inactive: 2.19%
CC(=O)Nc1ccc([As](=O)(O)O)cc1	inactive: 2.07%
CCCC1OP(N)(=O)OCC1CC (stereo not drawn)	inactive: 0.182%
O=P(Nc1nc2ccc(Cl)cc2s1)(c1ccccc1)c1ccccc1	inactive: 4.57%
CCN(N=Nc1nonc1N)c1nonc1N	inactive: 1.34% [at 46.1 µM]

SMILES	activation of IL-2 secretion
Nc1cccc2ccc([As](=O)(O)O)cc12	inactive: 4.57%
COc1ccccc1OP(=O)(Nc1ccc(C)cn1)Oc1ccccc1OC	inactive: -0.609%
Cc1ccc(OP(=O)(Nc2nccs2)Oc2ccc(C)cc2)cc1	inactive: -1.1%
Clc1ccc(Cl)c(NC2=NCC(CBr)S2)c1 (stereo not drawn)	inactive: -5.27%
CN1CCCC(OC(=O)C(c2ccccc2)c2ccccc2)C1 (stereo not drawn)	inactive: 0.724% [at 46.1 µM]
NC(=O)c1cc([N+](=O)[O-])cc([N+](=O)[O-])c1N	inactive: -2.86%
CN(C(=O)Cc1ccc(Cl)c(Cl)c1)[C@H]1CCCC[C@H]1N1CCCC1	inactive: 6.07%
Cc1ccc(N/C(=N/P(=O)(N2CCOCC2)N2CCOCC2)N2CCOCC2)cc1	inactive: -6.3%
CC(C)CC(=O)NC(Sc1ccc(Cl)cc1)C(Cl)(Cl)Cl (stereo not drawn)	inactive: -0.0818%
Nc1cc(N)c2nonc2c1[N+](=O)[O-]	inactive: 4.54%
Oc1ccccc1CNc1ccccn1	inactive: 6.17%
O=C(NC(Sc1ccncn1)C(Cl)(Cl)Cl)c1ccccc1 (stereo not drawn)	inactive: 14.9% [at 46.1 µM]
COc1ccc2nc(NP(=O)(c3ccccc3)c3ccccc3)sc2c1	inactive: -0.963%
COc1cc(I)ccc1[As](=O)(O)O	inactive: 0.522%
O=P1(N(CCCl)CCCl)OCCCN1CCCl (stereo not drawn)	inactive: -2.5%
O=P1(N(CCCl)CCCl)Nc2ccccc2N1	inactive: 2%
O=C(OC1CN2CCC1CC2)C12CC3CC(CC(C3)C1)C2 (stereo not drawn)	inactive: -3.31%
Cc1cc(=O)[nH]c(N[N+](=O)[O-])n1	inactive: -1.34%
Cc1c2c(nc3ccccc13)SC(C(Cl)Cl)C2 (stereo not drawn)	inactive: -2.46% [at 46.1 µM]
O=[N+]([O-])c1cc(Oc2ccc([N+](=O)[O-])cc2C(F)(F)F)cc([N+](=O)[O-])c1	inactive: 1.47%
Cc1ccc2nc3c(c(C)c2c1)CC(C(Cl)Cl)S3 (stereo not drawn)	inactive: -12.7% [at 46.1 µM]
